Key:
[1] = tested on: Salmonella typhimurium; test: Genotoxicity in Salmonella typhimurium TA1535 assessed as number of revertant colonies per plate at 5 ug/plate after 20 mins in absence of S9 fraction by Ames test (reference value: 15); details: salmonella enterica subsp. enterica serovar typhimurium
[2] = tested on: Salmonella typhimurium; test: Genotoxicity in Salmonella typhimurium TA100 assessed as number of revertant colonies per plate at 3 ug/plate after 20 mins in absence of S9 fraction by Ames test (reference value: 123); details: salmonella enterica subsp. enterica serovar typhimurium
[3] = tested on: Escherichia coli; test: Genotoxicity in Escherichia coli WP2uvrA assessed as number of revertant colonies per plate at 2 ug/plate after 20 mins in absence of S9 fraction by Ames test (reference value: 24); details: s9, 20 min

CCN(N=O)C(=N)N[N+](=O)[O-]
Activity [1]: 996 | Activity [2]: 772 | Activity [3]: 954

Reference: ChEMBL document CHEMBL3856258, “Phosphonate-based irreversible inhibitors of human γ-glutamyl transpeptidase (GGT). GGsTop is a non-toxic and highly selective inhibitor with critical electrostatic interaction with an active-site residue Lys562 for enhanced inhibitory activity” (Bioorg Med Chem, 2016)
